Data as given in paper PMC8470279, “Biosynthesis of the Novel Endogenous 15-Lipoxygenase Metabolites N-13-Hydroxy-octodecadienoyl-ethanolamine and 13-Hydroxy-octodecadienoyl-glycerol by Human Neutrophils and Eosinophils” (Cells, 2021).

How the values were obtained:
human eosinophils = test: Biosynthesis of 15-LO metabolites by human eosinophils; details: 1 µM MAFP 5 min, then 3 µM 1-LG 5 min
Description: (§1) For tissues samples, ~10 mg of tissue was put in 500 µL of Tris Buffer, crushed with a pestle, mixed with 500 µL of cold (−20 °C) MeOH containing the internal standards, centrifuged at 10,000× g and the supernatant collected. All Samples were processed by adjusting the final volume to 1 mL (incubation buffer-MeOH mixture, 1/1, v/v plus the internal standards). Samples (1 mL) were acidified with 0.575% of acetic acid and mixed with 1 mL CHCl3. Samples were then vortexed for 1 min, then centrifuged at 3000× g for 5 min. […] 15-LO metabolites were quantified using calibration curves, as described before.
(§2) Neutrophils and eosinophils were isolated from the peripheral blood of healthy volunteers as described before. […] Purity and viability were >95% and were assessed by Diff-Quick coloration and Trypan blue exclusion, respectively.
(§3) Prewarmed (37 °C) suspensions of human neutrophils (5 × 10^6 cells/mL) or eosinophils (10^6 cells/mL) in HBSS containing 1.6 mM CaCl2 were incubated with 1 µM MAFP for 5 min before the addition of LA, 1-LG, or LEA for different times or concentrations (see legends of Figures 3–8). […] Lipids were extracted and quantified by LC-MS/MS as described above.

human neutrophils = test: Biosynthesis of 15-LO metabolites by human neutrophils; details: MAFP 5 min, then 3 µM 1-LG 5 min
Description: as §1, §2, §3

With Methyl-arachidonoyl-fluorophosphonate the “Enhancement of 1-LG-induced 13-HODE-G biosynthesis” value (human eosinophils) was “tenfold”, the “Fold less 13-HODE biosynthesized by 1-LG-treated neutrophils” value (human neutrophils) was 65 times and the “Fold more 13-HODE-G biosynthesized by 1-LG-treated neutrophils” value (human neutrophils) was 20 times.
